From PubChem BioAssay AID743208 (The Scripps Research Institute Molecular Screening Center, 2013)
Only a part is listed here, and it is no random draw. The source made the active and inactive calls.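 Rule for the calls: active = inhibition above about 20% chosen separately for each screening run (limit read from the data); inactive = the rest.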

Chains of the proteins cited; added tags and fusions are not shown. Residues count along the entry.
UniProt O14672, 214-748 limits assumed: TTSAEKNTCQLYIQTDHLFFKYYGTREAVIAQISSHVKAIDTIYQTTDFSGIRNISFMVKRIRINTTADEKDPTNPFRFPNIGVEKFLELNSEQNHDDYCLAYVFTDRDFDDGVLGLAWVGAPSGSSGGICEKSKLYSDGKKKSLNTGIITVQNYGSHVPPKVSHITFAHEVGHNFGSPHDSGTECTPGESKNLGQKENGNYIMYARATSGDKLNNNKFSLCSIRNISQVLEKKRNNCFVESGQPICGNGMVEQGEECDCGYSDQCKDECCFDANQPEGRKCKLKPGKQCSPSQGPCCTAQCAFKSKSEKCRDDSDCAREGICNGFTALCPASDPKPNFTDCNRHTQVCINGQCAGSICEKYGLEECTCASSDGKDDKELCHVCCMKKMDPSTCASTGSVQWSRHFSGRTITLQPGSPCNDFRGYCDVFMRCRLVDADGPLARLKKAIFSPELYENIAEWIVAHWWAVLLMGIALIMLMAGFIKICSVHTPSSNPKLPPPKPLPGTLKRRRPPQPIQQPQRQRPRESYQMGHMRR

molecular target: Disintegrin and metalloproteinase domain-containing protein 10 (Homo sapiens) (UniProt O14672); experiment: blockers of ADAM10 peptide cleavage – biochemical, QFRET, triplicate, confirmation (AID 743208); conditions: EDANS fluorescence, at 6.95 µM, active compounds read high;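 note: 0% = DMSO wells and 100% = marimastat wells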
How it was run: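 Assay system: human ADAM10 protease with quenched EDANS/DABCYL DM2 peptide / Input: ADAM10 at 20 nM (2X solution) / Dosing: 6.95 µM single dose / Incubation: compound-enzyme preincubation 30 min, then 3 h substrate reaction, both 25 °C / Technique: FRET fluorescence, ex 359 nm, em 460 nm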

SMILES | inhibition
CCCCn1nnnc1C(c1cccc2ccccc12)N1CCC(n2c(=O)[nH]c3ccccc32)CC1 (stereo unspecified) | inactive: 9.25%
